Assay results taken from patent publication US8288383B2, “3-methyl-2- ( (2S) -2- (4- (3-methyl-L, 2, 4-oxadiazol-5-YL) phenyl) morpholino) -6- (pyrim-idin-4-yl) pyrimidin-4 (3H) -one as tau protein kinase inhibitor” (Sanofi, priority 2007, dated 2012).

Sequences of proteins named here, by UniProt entry; tags and fusion partners are left off.
UniProt P10635, whole entry: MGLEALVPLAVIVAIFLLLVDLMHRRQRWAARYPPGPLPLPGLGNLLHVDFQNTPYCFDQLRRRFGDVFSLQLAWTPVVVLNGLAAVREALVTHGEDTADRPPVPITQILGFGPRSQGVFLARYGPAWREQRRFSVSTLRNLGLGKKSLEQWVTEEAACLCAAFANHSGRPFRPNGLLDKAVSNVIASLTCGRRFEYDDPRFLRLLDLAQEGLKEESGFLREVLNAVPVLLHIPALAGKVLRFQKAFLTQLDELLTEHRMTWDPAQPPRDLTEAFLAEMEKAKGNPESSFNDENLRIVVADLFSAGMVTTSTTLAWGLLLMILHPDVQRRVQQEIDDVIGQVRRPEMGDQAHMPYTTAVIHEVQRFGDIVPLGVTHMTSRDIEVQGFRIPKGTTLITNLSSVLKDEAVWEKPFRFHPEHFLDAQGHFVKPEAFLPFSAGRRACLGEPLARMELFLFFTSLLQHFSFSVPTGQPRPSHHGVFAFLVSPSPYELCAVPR

Target: CYP2D6 (Homo sapiens, UniProt P10635)
Experiment: Inhibitory activity on CYP2D6 (human recombinant CYPs)
Settings: recombinant enzyme

IC50: 1900 nM
Structure (SMILES): Cn1c(N2CCOC(c3ccc(-n4cccn4)cc3)C2)nc(-c2ccncn2)cc1=O (stereo not shown) [Compound 5, 1-Methyl-2-[2-(4-pyrazol-1-yl-phenyl)-morpholin-4-yl]-1H-[4,4′]bipyrimidinyl-6-one]
